Laboratory results: patent publication US8642609B2, “Modulators of ATP-binding cassette transporters” (Vertex Pharmaceuticals Incorporated, priority 2003, dated 2014)

The chains behind the UniProt entries cited, without tags or fusion partners. Where a name states a change or a piece, a line headed by the entry shows the natural chain unless it says otherwise. A line that says so, or that is headed by a name, gives the form on record, which may keep a tag or linker.
UniProt P13569, with tags, fused parts or gaps DEL508-508: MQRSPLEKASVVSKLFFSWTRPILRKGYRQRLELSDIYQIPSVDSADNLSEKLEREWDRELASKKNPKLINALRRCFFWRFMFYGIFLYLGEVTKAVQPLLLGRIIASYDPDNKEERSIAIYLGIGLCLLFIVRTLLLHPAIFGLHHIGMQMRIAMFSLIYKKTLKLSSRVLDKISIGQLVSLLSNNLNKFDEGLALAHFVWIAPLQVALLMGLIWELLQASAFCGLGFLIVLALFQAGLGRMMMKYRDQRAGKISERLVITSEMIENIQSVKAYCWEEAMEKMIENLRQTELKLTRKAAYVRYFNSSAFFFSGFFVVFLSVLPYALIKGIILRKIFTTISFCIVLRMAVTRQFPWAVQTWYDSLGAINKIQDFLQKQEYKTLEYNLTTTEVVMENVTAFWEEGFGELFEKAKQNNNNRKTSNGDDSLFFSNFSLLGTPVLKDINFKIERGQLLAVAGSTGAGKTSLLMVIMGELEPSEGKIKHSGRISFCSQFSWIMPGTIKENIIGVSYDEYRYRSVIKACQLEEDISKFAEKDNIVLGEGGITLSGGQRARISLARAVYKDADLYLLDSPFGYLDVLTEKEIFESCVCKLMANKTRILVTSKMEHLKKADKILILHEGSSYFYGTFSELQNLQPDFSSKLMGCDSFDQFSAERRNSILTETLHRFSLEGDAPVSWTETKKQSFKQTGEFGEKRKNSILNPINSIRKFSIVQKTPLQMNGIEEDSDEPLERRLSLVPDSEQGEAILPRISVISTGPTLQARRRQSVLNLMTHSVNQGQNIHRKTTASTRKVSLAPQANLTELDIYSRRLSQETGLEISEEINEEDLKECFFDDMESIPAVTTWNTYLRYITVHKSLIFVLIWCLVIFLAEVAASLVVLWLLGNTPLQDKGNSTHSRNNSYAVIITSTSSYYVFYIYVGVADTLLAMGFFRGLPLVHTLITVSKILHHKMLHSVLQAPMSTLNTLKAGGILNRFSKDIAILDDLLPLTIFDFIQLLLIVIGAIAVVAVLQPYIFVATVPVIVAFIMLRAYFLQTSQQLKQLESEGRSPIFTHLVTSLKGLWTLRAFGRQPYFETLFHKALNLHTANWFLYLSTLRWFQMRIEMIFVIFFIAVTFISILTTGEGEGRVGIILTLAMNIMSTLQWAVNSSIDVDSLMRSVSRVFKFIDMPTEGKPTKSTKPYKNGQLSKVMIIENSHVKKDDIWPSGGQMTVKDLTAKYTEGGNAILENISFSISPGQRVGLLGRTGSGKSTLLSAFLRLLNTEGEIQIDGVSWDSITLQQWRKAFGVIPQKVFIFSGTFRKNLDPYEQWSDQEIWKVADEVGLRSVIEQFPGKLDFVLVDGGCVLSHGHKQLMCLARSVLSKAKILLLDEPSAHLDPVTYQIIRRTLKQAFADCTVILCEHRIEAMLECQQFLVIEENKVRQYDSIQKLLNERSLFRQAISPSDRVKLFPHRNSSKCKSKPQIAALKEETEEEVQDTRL

Molecular target: ΔF508-CFTR (Homo sapiens, UniProt P13569, DEL508-508)
Assay: Membrane potential optical assay (FRET/VIPR), identification of correction compounds
Type: cell-based
Excerpt: I) Membrane Potential Optical Methods for Assaying ΔF508-CFTR Modulation Properties of Compounds
The optical membrane potential assay utilized voltage-sensitive FRET sensors described by Gonzalez and Tsien (See, Gonzalez, J. E. and R. Y. Tsien (1995) “Voltage sensing by fluorescence resonance energy transfer in single cells” Biophys J 69(4): 1272-80, and Gonzalez, J. E. and R. Y. Tsien (1997) “Improved indicators of cell membrane potential that use fluorescence resonance energy transfer” Chem Biol 4(4): 269-77) in combination with instrumentation for measuring fluorescence changes such as the Voltage/Ion Probe Reader (VIPR) (See, Gonzalez, J. E., K. Oades, et al. (1999) “Cell-based assays and instrumentation for screening ion-channel targets” Drug Discov Today 4(9): 431-439).
These voltage sensitive assays are based on the change in fluorescence resonant energy transfer (FRET) between the membrane-soluble, voltage-sensitive dye, DiSBAC2(3), and a fluorescent phospholipid, CC2-DMPE, which is attached to the outer leaflet of the plasma membrane and acts as a FRET donor. […] The changes in fluorescence emission were monitored using VIPR™ II, which is an integrated liquid handler and fluorescent detector designed to conduct cell-based screens in 96- or 384-well microtiter plates. […]

For `CC(c1nc2ccccc2c(=O)n1C)N1CCC2(CC1)C(=O)NCN2c1ccccc1` (centres unmarked), the EC50 was 25 to 60 µM and the “% Efficacy” value (relative efficacy) was “++ (“++” means between 25% to 100%)”.
